Test results reported in patent publication US9078465B2, “Choline-silicic acid complex with osmolytes and divalent trace elements” (Bio Minerals N.V., priority 2002, dated 2015).

Conditions: OSA supplementation together with inadequate Zn supplementation (low Zn diet)

In the case of orthosilicic acid [OSA], the Zn in serum is reported as “decreased”.
